Test system: Mycobacterium smegmatis containing plasmid PMV261-Kana^R
Experiment: Control group: growth (OD600) of Mycobacterium smegmatis carrying PMV261-Kana^R (no intein) in kanamycin medium
Details: 20 μM cisplatin, kanamycin 50 μg/mL plus hygromycin, 37° C., 100 h

SMILES: N.N.[Cl][Pt][Cl] [cisplatin]
- inhibition rate of growth of Mycobacterium smegmatis containing the control group plasmid (PMV261-Kana^R): 14%

Source: patent US20230392179A1 (SOOCHOW UNIVERSITY, priority 2021, published 2023)
